Data from US20150290148A1 (priority 2006, published 2015).

Key:
[1] = system: interleukin 10 (IL10) gene; experiment: Quantitative real time PCR of hippocampal gene expression after IP injection; assay type: in vivo, Sprague-Dawley rats; conditions: within 1 hour after single injection of 1.0 mg/kg
interleukin 6 (IL6) gene = experiment: as above; assay type: in vivo, Sprague-Dawley rats; conditions: within 1 hour after single injection of 1.0 mg/kg
male Wistar rats [2] = experiment: Traumatic brain injury (fluid percussion) in rats, foot fault test; assay type: in vivo, rat; conditions: after TBI; 0.5 mg/kg/hr 24 hr IV infusion starting 3 hr after injury
Experimental: (§1) Three groups of male Wistar rats/group were used in this study. The animals were given 0 (vehicle control; saline), 0 (sham controls) or 0.5 mg/kg/hr MA via a 24 hr continuous IV infusion starting 3 hr after […] on Day 0. The test article was administered via an Alzet mini-osmotic pump at a rate of 0.0073 mL/hour. The dose concentration of MA loaded in the Alzet pump varied between animals (45.8-65.0 mg/mL), and was based on individual animal body weight on Day 0 and the dose concentration that would yield 0.5 mg/kg/hr MA at an infusion rate of 0.0073 mL/hr. Dosing of the animals was staggered over a 4-month period.
Prior to test article administration, all rats were subjected to a surgical procedure to produce a fluid percussion injury. […] The righting reflex time after injury was recorded. […] Animals were monitored 3-4 times a day for the first 48 hr following surgery and daily thereafter for 14 days.
Foot fault testing was performed to measure placement dysfunction of forelimbs. […] This was recorded as a foot fault. The total number of steps (movement of each forelimb) that the rat used to cross the grid were counted, and the total number of foot faults for each forelimb were recorded.

male Wistar rats [3] = experiment: Traumatic brain injury (fluid percussion) in rats, neurological severity score; assay type: in vivo, rat
Experimental: as §1
Prior to test article administration, all rats were subjected to a surgical procedure to produce a fluid percussion injury. Adult Sprague-Dawley rats (male, 350-500 g) are anesthetized with isoflurane anesthesia (1% isofluorane in 1 L/min O2) via face mask to effect for a small craniectomy (4.80 mm) and placement of a rigid Luer-loc needle hub (3 mm inside diameter). […] The righting reflex time after injury was recorded. […] Animals were monitored 3-4 times a day for the first 48 hr following surgery and daily thereafter for 14 days.
Behavioral testing was conducted at day 1. […] Neurological motor function was scored in all animals as follows:
Neurological severity score (NSS) was determined based on the scale below. […]

CN[C@@H](C)Cc1ccccc1 [methamphetamine]
IL10 expression, fold change [1]: increased more than four fold | IL6 expression, fold change (interleukin 6 (IL6) gene): greater than two fold reduction | percent of forelimb misses (foot fault test) vs saline (male Wistar rats [2]): Significant differences in the percent of forelimb misses | decrease in neurological severity score at day 7 (male Wistar rats [3]; 0.5 mg/kg/hr 24 hr IV infusion plus bolus, starting 3 hr after TBI): 52% | neurological severity scores vs saline (male Wistar rats [3]; 7, 14, 21 and 30 days after TBI, 0.5 mg/kg/hr 24 hr IV infusion starting 3 hr after injury): Significant differences in neurological severity scores
